System: human liver mitochondrial fraction
Assay: Intrinsic clearance and half-life in human liver mitochondrial fraction
Type: in vitro ADME
Conditions: 0.5 mg/mL human liver mitochondrial fraction; 1 μM test compounds, 5 μM Serotonin and Benzylamine controls; replicate 1

For `O=C(O)/C=C/C(=O)O.[2H]C([2H])([2H])N(C([2H])([2H])[2H])C([2H])([2H])Cc1c[nH]c2ccccc12` [SPL028viii, (96.7%) α,α,-dideutero-N,N-bis-trideutero-dimethyltryptamine fumarate salt], the “Half-life (min) R1” value was 121.4 min.

Reference: US12042564B2, “Therapeutic solid dosage forms” (CYBIN UK LTD, priority 2020, dated 2024)
